As a reminder, the inhibition is the percentage by which the read-out fell short of the control.

The results in this text go back to paper PMC9885530, “Identification of Natural Products Inhibiting SARS-CoV-2 by Targeting Viral Proteases: A Combined in Silico and in Vitro Approach” (Journal of Natural Products, 2023).

The assay addresses SARS-CoV-2 M^pro (Severe acute respiratory syndrome coronavirus 2, UniProt P0DTD1). Kind of assay: biochemical. The conditions noted are these: read-out: SARS-CoV-2 M^pro enzyme inhibition (%) 100 μM.

Regarding `CC(C)=CCc1cc(-c2coc3cc(O)ccc3c2=O)ccc1O` [Compound 20, neobavaisoflavone], the inhibition at 100 µM is 84.9 ± 6.3%.
